Assay: Metabolic stability in rat liver microsomes
Type: in vitro ADME, SD rat
Conditions: rat liver microsomes 0.5 mg/mL, compound 1 μM
Procedure: Experiments in microsomes: Human liver microsomes: 0.5 mg/mL, Xenotech; Rat liver microsomes: 0.5 mg/mL, Xenotech; Coenzyme (NADPH/NADH): 1 mM, Sigma Life Science; Magnesium chloride: 5 mM, 100 mM phosphate buffer (pH 7.4).
Preparation of stock solution: Powder of the example compound 2-8 was accurately weighed and dissolved in DMSO to 5 mM.
Preparation of phosphate buffer (100 mM, pH7.4): A pre-formulated 0.5M potassium dihydrogen phosphate (150 mL) was mixed with 0.5M dibasic potassium phosphate (700 mL). The pH of the mixture was adjusted to 7.4 with 0.5M dibasic potassium phosphate solution. […]
Incubation of the samples: The stock solution of the respective compound was respectively diluted to 0.25 mM with an aqueous solution containing 70% acetonitrile, and used as a working solution, ready for use. […]
Metabolic stability assay: 300 μL of pre-chilled stop solution was added to each well of a 96-well deep well plate and placed on ice as a stop plate. […] 100 μL of the supernatant was added to a 96-well plate to which 100 μL of distilled water was previously added, mixed, and analyzed by LC-MS/MS.
Data analysis: The peak areas of the corresponding compound and internal standard were detected by LC-MS/MS system, and the ratio of the peak area of the compound to the internal standard was calculated.

| t1/2 [h] | Structure (SMILES) |
| --- | --- |
| >2.42 | [2H]C([2H])([2H])n1nc2c(c1C#N)-c1cnc(N)c(c1)OC(C)c1cc(F)ccc1C(=O)N(C)C2 (racemic) [Compound 28] |
| >2.42 | C[C@H]1Oc2cc(cnc2N)-c2c(nn(C)c2C#N)CN(C)C(=O)c2ccc(F)cc21 [PF-06463922, reference compound] |
